Source: US11185553B2, “Pharmaceutical composition for preventing or treating ischemic-reperfusion injury comprising bile acids” (priority 2016, dated 2021)

System: human umbilical vein endothelial cells (HUVECs)
Conditions: 1 μM, Boyden chamber, vs control group; for cell migration effect (cell staining): FIG. 5A

SMILES | cell migration effect (cell staining) | cell migration (cell counting, migration assay) (FIG. 5B)
C[C@H](CCC(=O)NCCS(=O)(=O)O)[C@H]1CC[C@H]2[C@@H]3[C@H](O)C[C@@H]4C[C@H](O)CC[C@]4(C)[C@H]3C[C@H](O)[C@]12C [TauroCA, taurocholic acid] | significantly higher than that of the control group | 
C[C@H](CCC(=O)O)[C@H]1CC[C@H]2[C@@H]3[C@H](O)C[C@@H]4C[C@H](O)CC[C@]4(C)[C@H]3C[C@H](O)[C@]12C [cholic acid] | significantly higher than that of the control group | significantly increased
